Target: WDR5-MYC (Homo sapiens) (UniProt P61964+P01106)
Experiment: Disruption of WDR5/5-FAM-labelled MYC (261 to 267 residues)(unknown origin) interaction assessed as fold increase in activity incubated for 0.5 to 6 hrs by FP assay relative to control
Format: protein assay
Conditions: time 0.5-6 hrs
In short: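 Fluorescence polarization with WDR5 and a reporter peptide probe from MYC MbIIIb residues E261–V267. Compounds and WDR5 were incubated for 30 to 360 min before reading. FP signal was recorded over varying compound concentrations and fitted to a hyperbolic function to give Ki. DMSO served as negative control, and free MYC peptide was the quality control.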

Chains of the proteins cited; added tags and fusions are not shown. Lines headed by an entry give the natural chain unless they say otherwise; changes in a name come on top.
UniProt P01106: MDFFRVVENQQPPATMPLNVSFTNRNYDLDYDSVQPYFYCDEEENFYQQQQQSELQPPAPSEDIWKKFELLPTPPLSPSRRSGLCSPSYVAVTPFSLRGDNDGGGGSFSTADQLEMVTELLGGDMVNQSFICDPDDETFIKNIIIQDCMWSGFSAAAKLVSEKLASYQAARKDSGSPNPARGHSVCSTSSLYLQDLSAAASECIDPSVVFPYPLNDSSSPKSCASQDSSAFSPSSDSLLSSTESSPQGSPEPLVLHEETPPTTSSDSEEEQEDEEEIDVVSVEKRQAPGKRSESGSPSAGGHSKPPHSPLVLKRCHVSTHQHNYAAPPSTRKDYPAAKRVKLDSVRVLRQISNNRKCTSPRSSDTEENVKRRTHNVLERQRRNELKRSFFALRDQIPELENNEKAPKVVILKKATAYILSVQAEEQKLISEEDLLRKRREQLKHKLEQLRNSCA

Compound: CNC(=O)c1ccc(-c2nc(N)sc2SC#N)cc1
- fold change (FC): 1.4

Compound: N#CSc1sc(N)nc1-c1ccc(O)cc1
- fold change (FC): 1.4
